Test results reported in US5756355A, “Lipid membrane sensors” (Ecole Polytechnique Federale de Lausanne, priority 1992, dated 1998).

Sequences of proteins named here, by UniProt entry; tags and fusion partners are left off. Residues count along the entry.
UniProt F1N4Y2, 29-488: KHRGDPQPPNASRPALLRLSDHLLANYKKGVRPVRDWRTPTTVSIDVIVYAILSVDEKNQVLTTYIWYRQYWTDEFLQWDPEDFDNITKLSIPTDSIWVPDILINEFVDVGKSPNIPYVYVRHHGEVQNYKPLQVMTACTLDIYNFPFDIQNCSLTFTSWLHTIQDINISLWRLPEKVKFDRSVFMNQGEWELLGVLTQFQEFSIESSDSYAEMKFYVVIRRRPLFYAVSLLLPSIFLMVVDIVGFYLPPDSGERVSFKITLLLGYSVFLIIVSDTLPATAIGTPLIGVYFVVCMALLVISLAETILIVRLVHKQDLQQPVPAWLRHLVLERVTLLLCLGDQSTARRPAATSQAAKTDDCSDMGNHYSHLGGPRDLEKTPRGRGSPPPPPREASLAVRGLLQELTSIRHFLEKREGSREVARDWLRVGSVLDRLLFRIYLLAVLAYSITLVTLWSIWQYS

Biological target: T1, 5-HT3 receptor (Bos taurus, UniProt F1N4Y2)
T1 construct: from tissue; host or cells: calf brain, entorhinal cortex and hippocampus; detergent (OPG) solubilised and purified on 5-HT-agarose
Experiment: Current responses of gold-supported lipid bilayer sensor with incorporated 5-HT3 receptor during stimulation by agonists, without or with antagonist
Assay type: biochemical, calf
Method: A 1 mm^2 gold electrode was cleaned and inserted into the electrochemical cell as described in Example 5. First, 100 μl of the thiolipid/OPG solution (0.7 mM/48 mM in 0.1 M KCl) was added and the adsorption process followed as described in Example 6. After approximately 2 minutes, the solution was completely replaced. The sample was washed several times with 55 mM OGP in 0.1 M KCl.
A receptor-containing solution was prepared as follows: 2 mg (2.9 μmol) of DMPC, 2 mg (2.6 μmol) of POPC (i.e. an approximately 1:1 molar ratio of DMPC: POPC) and 2 mg ([…]) of OPG were ultrasonicated in 1 ml of 0.1 M KCl, until the solution became clear. This solution was mixed with 15 μg of the 5-HT3 receptor (1 mg/ml, in 40 mM OPG and complex buffer "A" as used in Example 4), 100 μl of the receptor-containing solution was placed in the cell. After about 2 minutes, the cell solution was diluted stepwise by the addition of small portions of 0.1 M KCl. Finally, the solution was completely replaced by 0.1 M KCl. The resulting layer was used for experiments within 5 hours at most, then being removed by washing with 55 mM OGP in 0.1 M KCl and formed again using the ice-cooled receptor solution.
50 μl portions of 5-HT solution "B" (20 μM 5-HT in 0.1 M KCl) were added successively to the layer with the incorporated receptor (still connected to the cell containing 500 μl of 0.1 M KCl). An interval of about 50 seconds was left between additions (the capacitive and the faradaic current reaching a constant value).
The construction of the receptor-containing system was performed as described above. Again, 500 μl of 0.1 M KCl was placed in the measurement cell but for stimulation, a solution "C" of 20 μM 1-phenylbiguanide, another agonist, in 0.1 M KCl was used.
The supported lipid bilayer, containing the 5-HT3 receptor, was formed as described in (ii). […] After each addition, the values of the capacitive and the faradaic currents were allowed to stabilize.
A large (geometrical area about 1 cm^2) AgCl-coated Ag wire served as the counter/reference electrode and was fixed at a defined distance from the working electrode. The impedance measurements were made using a two-channel lock-in amplifier (EG&G model 5206) at v=120 Hz, applying Uo =17.5 mV RMS to the electrochemical cell. The real and imaginary parts of the impedance were obtained from the currents in phase (faradaic component Ifarad) and 90° out of phase (capacitive component Icap) with the applied voltage, respectively. These currents were measured on a 1 k.OMEGA. resistor in series with the electrodes.

[1] = with 10 nM ICS 205-930, 5-HT 14 μM
[2] = with 10 nM ICS 205-930, 5-HT 117 μM
[3] = with 10 nM ICS 205-930, 5-HT 200 μM
[4] = with 10 nM ICS 205-930, 5-HT 263 μM
[5] = with 10 nM ICS 205-930, 5-HT 311 μM
[6] = with 10 nM ICS 205-930, 5-HT 350 μM
[7] = with 10 nM ICS 205-930, 5-HT 382 μM
[8] = with 10 nM ICS 205-930, 5-HT 408 μM
[9] = with 10 nM ICS 205-930, 5-HT 431 μM
[10] = with 10 nM ICS 205-930, 5-HT 450 μM
[11] = with 10 nM ICS 205-930, 5-HT 700 μM (pure solution D)
[12] = without ICS, 5-HT 20.0 μM (pure solution B)

## NCCc1c[nH]c2ccc(O)cc12 [5-hydroxytryptamine]
5-HT 1.82 μM, Experiment 1
  Icap current response: 101.5 nA
  Ifarad current response: 25 nA
5-HT 1.82 μM, Experiment 2
  Icap current response: 100 nA
  Ifarad current response: 23.2 nA
5-HT 3.33 μM, Experiment 1
  Icap current response: 103.4 nA
  Ifarad current response: 26.2 nA
5-HT 3.33 μM, Experiment 2
  Icap current response: 102.1 nA
  Ifarad current response: 24.5 nA
5-HT 4.62 μM, Experiment 1
  Icap current response: 104.8 nA
  Ifarad current response: 26.9 nA
5-HT 4.62 μM, Experiment 2
  Icap current response: 103.3 nA
  Ifarad current response: 25.2 nA
5-HT 5.71 μM, Experiment 1
  Icap current response: 105.6 nA
  Ifarad current response: 27.3 nA
5-HT 5.71 μM, Experiment 2
  Icap current response: 104.3 nA
  Ifarad current response: 25.6 nA
5-HT 6.66 μM, Experiment 1
  Icap current response: 106.2 nA
  Ifarad current response: 27.5 nA
5-HT 6.66 μM, Experiment 2
  Icap current response: 105.1 nA
  Ifarad current response: 26.0 nA
5-HT 7.50 μM, Experiment 1
  Icap current response: 106.8 nA
  Ifarad current response: 27.7 nA
5-HT 7.50 μM, Experiment 2
  Icap current response: 105.6 nA
  Ifarad current response: 26.2 nA
5-HT 8.24 μM, Experiment 1
  Icap current response: 107.2 nA
  Ifarad current response: 27.7 nA
5-HT 8.24 μM, Experiment 2
  Icap current response: 106.1 nA
  Ifarad current response: 26.3 nA
5-HT 8.89 μM, Experiment 1
  Icap current response: 107.5 nA
  Ifarad current response: 27.7 nA
5-HT 8.89 μM, Experiment 2
  Icap current response: 106.3 nA
  Ifarad current response: 26.3 nA
5-HT 9.47 μM, Experiment 1
  Icap current response: 107.8 nA
  Ifarad current response: 27.7 nA
5-HT 9.47 μM, Experiment 2
  Icap current response: 106.5 nA
  Ifarad current response: 26.3 nA
5-HT 10.0 μM, Experiment 1
  Icap current response: 108.1 nA
  Ifarad current response: 27.7 nA
5-HT 10.0 μM, Experiment 2
  Icap current response: 106.5 nA
  Ifarad current response: 26.3 nA
5-HT 10.5 μM, Experiment 1
  Icap current response: 108.1 nA
  Ifarad current response: 27.7 nA
5-HT 10.5 μM, Experiment 2
  Icap current response: 106.5 nA
  Ifarad current response: 26.3 nA
[1]
  Icap current response: 16.1 nA
  Ifarad current response: 89.1 nA
[2]
  Icap current response: 18.1 nA
  Ifarad current response: 89.8 nA
[3]
  Icap current response: 19.1 nA
  Ifarad current response: 90.2 nA
[4]
  Icap current response: 19.7 nA
  Ifarad current response: 90.4 nA
[5]
  Icap current response: 20.2 nA
  Ifarad current response: 90.6 nA
[6]
  Icap current response: 20.5 nA
  Ifarad current response: 90.7 nA
[7]
  Icap current response: 20.7 nA
  Ifarad current response: 90.7 nA
[8]
  Icap current response: 20.8 nA
  Ifarad current response: 90.7 nA
[9]
  Icap current response: 20.9 nA
  Ifarad current response: 90.7 nA
[10]
  Icap current response: 20.9 nA
  Ifarad current response: 90.7 nA
[11]
  Icap current response: 20.9 nA
  Ifarad current response: 90.7 nA
Without ICS, 5-HT 0.1 μM
  Icap current response: 16.6 nA
  Ifarad current response: 89.0 nA
Without ICS, 5-HT 1.8 μM
  Icap current response: 17.8 nA
  Ifarad current response: 90.3 nA
Without ICS, 5-HT 3.3 μM
  Icap current response: 18.9 nA
  Ifarad current response: 91.0 nA
Without ICS, 5-HT 4.6 μM
  Icap current response: 19.4 nA
  Ifarad current response: 91.5 nA
Without ICS, 5-HT 5.7 μM
  Icap current response: 19.8 nA
  Ifarad current response: 91.8 nA
Without ICS, 5-HT 6.7 μM
  Icap current response: 20.1 nA
  Ifarad current response: 92.0 nA
Without ICS, 5-HT 7.5 μM
  Icap current response: 20.3 nA
  Ifarad current response: 92.1 nA
Without ICS, 5-HT 8.9 μM
  Icap current response: 20.7 nA
  Ifarad current response: 92.3 nA
Without ICS, 5-HT 10.0 μM
  Icap current response: 21.0 nA
  Ifarad current response: 92.5 nA
Without ICS, 5-HT 11.7 μM
  Icap current response: 21.2 nA
  Ifarad current response: 92.6 nA
[12]
  Icap current response: 21.2 nA
  Ifarad current response: 92.6 nA
